According to patent US4938897A, “Chlorambucil derivatives and cell-discriminating agent containing the same” (Kureha Kagaku Kogyo Kabushiki Kaisha, priority 1985, dated 1990):

Test system: ICR-JCL mouse
Settings: 80 mg/kg body weight

O=C(O)CCCc1ccc(N(CCCl)CCCl)cc1 [chlorambucil]
death: died just after the administration
